Target: T1, A2BAR (Homo sapiens, UniProt P29275)
T1 sequence (P29275 1-332): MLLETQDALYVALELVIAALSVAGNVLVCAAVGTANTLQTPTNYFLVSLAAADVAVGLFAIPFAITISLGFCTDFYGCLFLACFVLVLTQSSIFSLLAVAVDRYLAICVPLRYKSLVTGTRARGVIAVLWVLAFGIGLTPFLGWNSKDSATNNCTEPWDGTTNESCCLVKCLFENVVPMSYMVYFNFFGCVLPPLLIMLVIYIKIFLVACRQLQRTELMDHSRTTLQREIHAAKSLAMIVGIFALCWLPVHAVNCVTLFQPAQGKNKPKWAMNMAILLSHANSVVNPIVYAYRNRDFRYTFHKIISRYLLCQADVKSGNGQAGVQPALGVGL
Experiment: cAMP accumulation assay in HEK293-A2B cells

CCCn1c(=O)c2[nH]c(-c3ccc(OCC(=O)Nc4ccc(C#N)cc4)cc3)nc2n(CCC)c1=O [MRS1754]
IC50: 0.513 ± 0.207 µM
Kb: 0.0033 µM
